For four compounds, EC50 results are on record in patent US20140045746A1 (Merck Sharp & Dohme Corp., priority 2012, published 2014).

By UniProt entry, the sequences of proteins in these tests, tags left out.
UniProt O14842, whole entry: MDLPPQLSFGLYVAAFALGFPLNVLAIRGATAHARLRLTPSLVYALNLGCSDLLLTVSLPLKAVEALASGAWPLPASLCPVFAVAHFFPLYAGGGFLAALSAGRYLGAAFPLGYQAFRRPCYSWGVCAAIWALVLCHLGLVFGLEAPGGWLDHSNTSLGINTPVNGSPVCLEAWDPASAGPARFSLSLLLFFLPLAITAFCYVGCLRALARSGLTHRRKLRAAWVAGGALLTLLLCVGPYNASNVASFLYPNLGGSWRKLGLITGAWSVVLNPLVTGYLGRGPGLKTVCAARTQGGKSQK

Experiment [1] concerns the target T1, hGPR40 (Homo sapiens, UniProt O14842). The experiment is described as follows: GPR40 FLIPR assay (agonist-induced calcium mobilization).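 Note: calcium mobilization in the cells read as fluorescence of fluo-4 AM loaded cells on FLIPR after compound addition, cells preloaded with dye 100 min at room temperature.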 In kind it is cell-based. Set-up: expressed in transfected cells; host or cells: CHO cells stably expressing NFAT BLA (beta-lactamase). Conditions: GPR40/CHO NFAT BLA cells. The text has this: (§1) Human and mouse GPR40 stable cell-lines were generated in CHO cells stably expressing NFAT BLA (Beta-lactamase). A human GPR40 stable cell-line was generated in HEK cells stably expressing the aequorin expressing reporter. The expression plasmids were transfected using lipofectamine (Life Technologies) following manufacturer's instructions. Stable cell-lines were generated following drug selection.
On the technique in general: Calcium assays in cells follow changes in intracellular calcium, usually with a dye or a luminescent sensor.

Experiment [2] concerns the target T1, hGPR40. As to the kind of experiment: GPR40 Inositol Phosphate Turnover (IP1) Assay. Details: expressed in transfected cells; host or cells: HEK cells stably expressing the aequorin reporter. Conditions: HEK cells stably expressing human GPR40; 0% serum; read-out: hGPR40 IP1 EC50 (0% serum). In kind it is cell-based.
Text: as §1

With `Cc1nc(OCCCC(C)(C)O)ccc1-c1ccc(F)c(COc2cc3c(cn2)[C@H]2[C@@H](C3)[C@@H]2C(=O)O)c1` [Compound 7-7, (5aR,6S,6aS)-3-((2-fluoro-5-(6-((4-hydroxy-4-methylpentyl)oxy)-2-methylpyridin-3-yl)benzyl)oxy)-5,5a,6,6a-tetrahydrocyclopropa[4,5]cyclopenta[1,2-c]pyridine-6-carboxylic acid], the EC50 (usually the concentration at which the effect is half-maximal) at hGPR40 [1] amounted to 0.023 µM.

`Cc1cc(OCC2(F)CCOCC2)cc(C)c1-c1cccc(COc2cc3c(cn2)[C@H]2[C@@H](C3)[C@@H]2C(=O)O)c1` [Compound 9-8, (5aR,6S,6aS)-3-((4′-((4-fluoro-tetrahydro-2H-pyran-4-yl)methoxy)-2′,6′-dimethyl-[1,1′-biphenyl]-3-yl)methoxy)-5,5a,6,6a-tetrahydrocyclo-propa[4,5] cyclopenta[1,2-c] pyridine-6-carboxylic acid]: the EC50 on hGPR40 [1] came out at 0.023 µM.

Take `CC(C)(O)CCOc1cc(C(F)(F)F)c(-c2ccc(F)c(COc3cc4c(cn3)[C@H]3[C@@H](C4)[C@@H]3C(=O)O)c2)cn1` [Compound 20-7, (5aR,6S,6aS)-3-((2-fluoro-5-(6-(3-hydroxy-3-methylbutoxy)-4-(trifluoromethyl)pyridin-3-yl)benzyl)oxy)-5,5a,6,6a-tetra-hydrocyclo-propa[4,5] cyclopenta [1,2-c]pyridine-6-carboxylic acid]: the EC50 on hGPR40 [1] came to 0.023 µM.

In the case of `Cc1c(COc2cc3c(cn2)[C@H]2[C@@H](C3)[C@@H]2C(=O)O)cccc1-n1c(C(F)(F)F)nc2ccc(F)c(F)c21` [Compound 32-8, (5aR,6S,6aS)-3-((3-(6,7-difluoro-2-(trifluoromethyl)-1H-benzo[d]imidazol-1-yl)-2-methylbenzyl)oxy)-5,5a,6,6a-tetrahydrocyclopropa[4,5]cyclopenta[1,2-c]pyridine-6-carboxylic acid], at hGPR40 [2], the EC50 was found to be 0.0035 µM.
